Test system: myopia
Experiment: Topical eye drop composition (Table 3): myopia progression or onset
Settings: drop 4 times per day

## CN1C2CCC1CC(OC(=O)C(C)(CO)c1ccccc1)C2.Cl (stereo not shown) [Compound E22R]
  rate of progression of myopia: substantially slows

From patent US11117869B2, “Compounds, compositions and methods for treatment of myopia” (Aerie Pharmaceuticals, Inc., priority 2019, dated 2021)
